Literature values, collected in US9951014B2, “Mammalian and bacterial nitric oxide synthase inhibitors” (Northwestern University, priority 2014, dated 2018).
pKd: −log10 of the molar value.

By UniProt entry, the sequences of proteins in these tests, tags left out. Residues count along the entry.
UniProt P29473, 39-482: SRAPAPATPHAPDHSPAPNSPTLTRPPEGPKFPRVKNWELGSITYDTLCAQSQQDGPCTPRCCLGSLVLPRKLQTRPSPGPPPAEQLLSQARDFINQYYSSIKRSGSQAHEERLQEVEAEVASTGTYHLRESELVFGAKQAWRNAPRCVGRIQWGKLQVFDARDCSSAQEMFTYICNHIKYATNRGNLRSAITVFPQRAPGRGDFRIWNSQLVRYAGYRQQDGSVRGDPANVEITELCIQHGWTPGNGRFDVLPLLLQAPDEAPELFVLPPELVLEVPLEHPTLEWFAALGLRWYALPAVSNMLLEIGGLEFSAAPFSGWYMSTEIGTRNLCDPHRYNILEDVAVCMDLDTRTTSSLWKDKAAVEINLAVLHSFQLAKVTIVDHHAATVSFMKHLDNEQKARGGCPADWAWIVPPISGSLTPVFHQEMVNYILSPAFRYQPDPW

Target: eNOS (Bos taurus (Bovine), UniProt P29473)
Settings: literature data (footnotes a, c); read-out: KS eNOS; cited from earlier work

Structure (SMILES): N=C(NCCC[C@H](N)C(=O)O)N[N+](=O)[O-] [L-NNA, N^ω-nitro-L-arginine, reference compound]
- pKd: 7.00
